# Test results from patent US9714249B2 (Novartis AG, priority 2013, dated 2017).
# Chains of the proteins cited; added tags and fusions are not shown.
# UniProt Q86Y26, whole entry: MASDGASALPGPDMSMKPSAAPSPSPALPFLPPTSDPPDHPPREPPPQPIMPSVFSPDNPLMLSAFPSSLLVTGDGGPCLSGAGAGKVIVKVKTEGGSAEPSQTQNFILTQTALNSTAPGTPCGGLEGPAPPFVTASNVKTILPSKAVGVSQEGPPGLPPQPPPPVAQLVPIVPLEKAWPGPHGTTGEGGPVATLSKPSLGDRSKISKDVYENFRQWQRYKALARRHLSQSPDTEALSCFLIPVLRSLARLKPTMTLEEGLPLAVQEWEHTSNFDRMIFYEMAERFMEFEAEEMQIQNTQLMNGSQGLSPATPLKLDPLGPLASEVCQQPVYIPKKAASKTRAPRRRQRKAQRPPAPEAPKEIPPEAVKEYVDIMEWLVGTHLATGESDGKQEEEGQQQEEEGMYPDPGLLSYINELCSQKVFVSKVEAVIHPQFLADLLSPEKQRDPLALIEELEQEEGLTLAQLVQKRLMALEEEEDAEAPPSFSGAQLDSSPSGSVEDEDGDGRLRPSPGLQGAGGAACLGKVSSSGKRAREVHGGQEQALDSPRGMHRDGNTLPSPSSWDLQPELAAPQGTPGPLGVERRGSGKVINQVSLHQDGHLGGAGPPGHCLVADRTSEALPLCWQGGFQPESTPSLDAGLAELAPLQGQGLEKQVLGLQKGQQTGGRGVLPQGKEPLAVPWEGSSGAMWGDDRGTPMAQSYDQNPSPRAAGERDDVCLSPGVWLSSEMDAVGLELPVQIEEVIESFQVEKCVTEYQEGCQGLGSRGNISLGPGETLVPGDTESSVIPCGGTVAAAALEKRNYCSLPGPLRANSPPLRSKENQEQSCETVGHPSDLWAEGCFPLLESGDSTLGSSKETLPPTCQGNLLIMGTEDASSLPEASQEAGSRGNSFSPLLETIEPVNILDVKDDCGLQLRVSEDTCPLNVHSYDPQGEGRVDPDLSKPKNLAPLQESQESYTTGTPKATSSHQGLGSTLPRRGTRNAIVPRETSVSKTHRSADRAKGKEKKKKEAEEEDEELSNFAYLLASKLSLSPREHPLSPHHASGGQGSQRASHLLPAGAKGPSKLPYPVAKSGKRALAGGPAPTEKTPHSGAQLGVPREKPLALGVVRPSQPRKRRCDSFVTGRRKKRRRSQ
# What was measured:
# MV-4-11 cells = experiment: Cell growth inhibition assay (CellTiter-Glo), MV-4-11
# THP-1 cells = experiment: Cell growth inhibition assay (CellTiter-Glo), THP-1
# K-562 cells = experiment: Cell growth inhibition assay (CellTiter-Glo), K-562
# BRD4-NUT-fusion = BRD4-NUT-fusion (Homo sapiens (Human), UniProt O60885+Q86Y26); experiment: Nut-foci formation assay (HCS) in HCC2494 NUT midline carcinoma cells; format: cell-based; conditions: read-out: HCS Brd4-NUT IC50, 24 hours, nuclear BRD4-NUT foci, immunofluorescence
compound,measurement,setting,value
COc1ncccc1-n1nc(C)c2c1C(c1ccc(Cl)cc1)N(c1cc(Cl)c(=O)n(C)c1)C2=O (stereo not shown),MV-4-11 TGI,"MV-4-11 cells; MV-4-11, 4 days, total growth inhibition",121 nM
same,GI50,"MV-4-11 cells; read-out: MV-4-11 GI50, MV-4-11, 4 days, half-maximal growth inhibition",87.7 nM
same,THP-1 TGI,"THP-1 cells; THP-1, 4 days, total growth inhibition",384 nM
same,GI50,"THP-1 cells; read-out: THP-1 GI50, THP-1, 4 days, half-maximal growth inhibition",204 nM
same,K-562 TGI,"K-562 cells; K-562, 4 days, total growth inhibition",>10000 nM
same,GI50,"K-562 cells; read-out: K-562 GI50, K-562, 4 days, half-maximal growth inhibition",719 nM
same,IC50,BRD4-NUT-fusion,60.9 nM
